This note sets out measurements from ChEMBL document CHEMBL5625223 (Eur J Med Chem, 2023).

In the experiment the target is Adenosine receptor A2a (Homo sapiens) (UniProt P29274). The experiment is described as follows: Displacement of […] from human A2AR expressed in HEK cells at 10 uM relative to control. The format is cell-based. To be noted: filed as agonist. In general terms: Loss of bound radioactivity is the signal in a displacement assay; it reports binding, not function.

Molecules are shown by their SMILES.

Take `Clc1nc(NCC2CC2)c2nc[nH]c2n1`: the Activity turned out to be 67%.
